Screening data from PubChem BioAssay.
Cneo AK release = causes C. neoformans cell lysis. adenylate kinase release luminescence, 4 h; normalised: neutral wells 0, clomiphene wells 100. lysis activity, % at 15 µM. 360,000 tested, 0.2% active. AID 651654;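 active = mean lysis activity across replicates of at least 80%, whatever share of replicates individually reach that level; inactive = mean lysis activity below 80%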
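Material: C. neoformans cells | Amount: Yeast cell density of 5 × 10^6 cells/mL | Medium: Fresh YPD growth medium | Dosing: Single dose | Times: Static 4 h at 37 °C with compound, 1 h detection | Detection: AK luminescence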
Env fusion inh = inhibitors of HIV Env-mediated cell fusion | 360,000 tested, 1.1% active | inhibition, % at 12.3 µM | HeLa-JRFL Env/CEM21 cell fusion, luciferase | AID 651610;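 active = mean replicate inhibition score of at least 50 and every replicate individually at or above 50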;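 note: 0% = plate neutral controls and 100% = maraviroc near 300 nM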
FN deposit inh = fibronectin deposition inhibition; AH1F fibroblasts, Alexa488-fibronectin deposition fluorescence, overnight; inhibition, % at 12.6 µM; 350,000 tested, 0.086% active;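 active = mean inhibition across replicates of 30% or more, regardless of how many single replicates reach that level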;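 note: positive control wells lacked labelled fibronectin entirely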
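Schedule: 1 h cell adhesion before compound, then overnight fibronectin incubation; test system: AH1F fibroblast monolayer depositing Alexa488-labelled fibronectin into matrix; quantity: 10000 AH1F cells per well; probe or stimulus: fluorescent fibronectin at 24 nM final; signal: fluorescence, ex 485 nm, em 525 nm; evaluation: percent inhibition as loss of matrix-bound fibronectin fluorescence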
PGC1a acetyl inh = lowers PGC1a acetylation signal in U2OS cells. 350,000 tested, 0.17% active. inhibition, % at 15.6 µM. AlphaScreen anti-acetyl-lysine; with virally co-expressed GCN5 acetyltransferase;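 active = every replicate shows inhibition of at least 40%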;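 note: 0% = neutral control wells and 100% = positive control wells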
UUG fidelity = modulators of start codon recognition fidelity in yeast; S. cerevisiae UUG-firefly luciferase reporter, luminescence/redox ratio; AID 602363; 350,000 tested, 0.13% active; activity score, % at 18.7 µM;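 active = replicate mean at a twofold rise or more, about +100% in these data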;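 also: firefly luciferase made from a UUG start codon reports start codon fidelity; reporter light over untreated wells divided by growth signal over untreated wells; some hits fall short of that in this replicate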
miR122 inh = inhibitors of miR-122 in Huh7 cells. Huh7 miR-122 Renilla luciferase sensor, 48 h; neutral wells = 0, positive control = 100. activation (reporter increase), % at 12.5 µM. 340,000 tested, 0.3% active;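 active = mean replicate activation score at least 90 and every replicate individually at or above 90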;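 note: higher luciferase means less miR-122 activity so hits act as miR-122 inhibitors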
An asterisk follows results filed as active; [ ] = dose if it differs, or a comment. Compounds with a hit are over-represented: about 1.5% of the library has one in this group of screens.

Screening Cc1ccc(S(=O)(=O)Nc2ccc3c(c2)C(=O)N([C@@H](C)CO)C[C@@H](C)[C@H](CN(C)Cc2ccc(C(F)(F)F)cc2)OCCCC[C@@H](C)O3)cc1 returned Cneo AK release 33.6, Env fusion inh 107.8*[16.7 µM], FN deposit inh -6.3, PGC1a acetyl inh 0.2, UUG fidelity 3.1 and miR122 inh -15.6[16.7 µM].
For C[C@@H]1CCCCO[C@@H](CN(C)Cc2ccc(C(F)(F)F)cc2)[C@@H](C)CN([C@H](C)CO)C(=O)c2cc(NS(=O)(=O)c3cn(C)cn3)ccc2O1 the results were Cneo AK release -0.6, Env fusion inh -1.9[16.7 µM], PGC1a acetyl inh 1.3, UUG fidelity 3.1 and miR122 inh 2.6[16.7 µM].
For C[C@@H]1CCCCO[C@@H](CN(C)Cc2ccc(C(F)(F)F)cc2)[C@H](C)CN([C@H](C)CO)C(=O)c2cc(NS(=O)(=O)c3ccc(Cl)cc3)ccc2O1 the results were Cneo AK release 9.2, Env fusion inh 60.5*[16.7 µM], FN deposit inh -12.2, PGC1a acetyl inh 8.2, UUG fidelity 20.0 and miR122 inh -14.8[16.7 µM].
For C[C@@H]1CCCCO[C@@H](CN(C)Cc2ccc(C(F)(F)F)cc2)[C@@H](C)CN([C@@H](C)CO)C(=O)c2cc(NS(=O)(=O)c3cn(C)cn3)ccc2O1 the results were Cneo AK release 91.3*, Env fusion inh -19.8[16.7 µM], PGC1a acetyl inh 3.0, UUG fidelity 28.6 and miR122 inh 26.0[16.7 µM].
`Cc1ccc(S(=O)(=O)Nc2ccc3c(c2)C(=O)N([C@H](C)CO)C[C@@H](C)[C@@H](CN(C)Cc2ccc(C(F)(F)F)cc2)OCCCC[C@@H](C)O3)cc1` gave Cneo AK release 13.3, Env fusion inh 68.5*[16.7 µM], FN deposit inh 0.2, PGC1a acetyl inh -15.1, UUG fidelity 11.9 and miR122 inh -8.1[16.7 µM].
`COc1ccc(-c2nnc(NC(=O)c3cc(Cl)ccc3Cl)o2)cc1` gave Cneo AK release 4.1, Env fusion inh 35.7, FN deposit inh -5.5, PGC1a acetyl inh 4.9, UUG fidelity -15.7 and miR122 inh -6.3.
Screening CCSc1nnc(NC(=O)COc2ccc3ccccc3c2)s1 returned Cneo AK release 0.4, Env fusion inh -3.8, FN deposit inh 3.9, PGC1a acetyl inh 2.6, UUG fidelity -10.1 and miR122 inh -4.3.
CC(C)NC(=O)NC(=O)COC(=O)CCCSc1nc2ccccc2s1 was read as Cneo AK release 2.8, Env fusion inh -6.1, FN deposit inh 28.4, PGC1a acetyl inh 1.7, UUG fidelity -10.1 and miR122 inh -1.6.
CCCNC(=O)NNC(=O)c1cc(-c2ccc3c(c2)OCO3)nc2ccccc12 was read as Cneo AK release -0.7, Env fusion inh 9.2, FN deposit inh 1.8, PGC1a acetyl inh 7.0, UUG fidelity -7.9 and miR122 inh 102.2*.
For CO[C@@H](CN(C)C(=O)C1CCOCC1)[C@@H](C)CN(C(=O)Nc1ccc(C(F)(F)F)cc1)[C@@H](C)CO the results were Cneo AK release -2.2, FN deposit inh -3.7 and PGC1a acetyl inh 13.3.
For CO[C@H](CN(C)C(=O)C1CC1)[C@H](C)CN(C(=O)Nc1ccc(C(F)(F)F)cc1)[C@@H](C)CO the results were Cneo AK release -0.4, Env fusion inh 55.6*[16.7 µM], FN deposit inh -3.7 and PGC1a acetyl inh -3.3.
`COc1cccc(S(=O)(=O)N(C)C[C@H]2Oc3cc(C4=CCCC4)ccc3S(=O)(=O)N([C@H](C)CO)C[C@@H]2C)c1` gave Cneo AK release -5.5, Env fusion inh 63.1*[16.7 µM], FN deposit inh 1.8, PGC1a acetyl inh -22.8, UUG fidelity -2.9 and miR122 inh -6.5[16.7 µM].
COc1cccc(S(=O)(=O)N(C)C[C@H]2Oc3cc(C4=CCCC4)ccc3S(=O)(=O)N([C@@H](C)CO)C[C@@H]2C)c1 was read as Cneo AK release -1.7, Env fusion inh -8.7[16.7 µM], FN deposit inh -11.2, PGC1a acetyl inh -13.2, UUG fidelity -9.4 and miR122 inh 26.6[16.7 µM].
`COc1cccc(S(=O)(=O)N(C)C[C@H]2Oc3cc(C4=CCCC4)ccc3S(=O)(=O)N([C@H](C)CO)C[C@H]2C)c1` gave Cneo AK release -2.5, Env fusion inh 94.6*[16.7 µM], FN deposit inh -6.4, PGC1a acetyl inh -13.2, UUG fidelity -15.5 and miR122 inh 10.1[16.7 µM].
For COc1ccc(S(=O)(=O)N(C)C[C@@H]2Oc3cc(C4=CCCC4)ccc3S(=O)(=O)N([C@H](C)CO)C[C@H]2C)cc1 the results were Cneo AK release -4.5, Env fusion inh 26.5[16.7 µM], FN deposit inh 4.6, PGC1a acetyl inh -9.0, UUG fidelity -3.4 and miR122 inh -6.0[16.7 µM].
`O=C1c2ccccc2NC(c2ccncc2)N1c1ccccn1` (stereo not given) gave Cneo AK release 0.6, PGC1a acetyl inh -1.3, UUG fidelity -10.4 and miR122 inh -2.4.
Screening N#Cc1ccc(S(=O)(=O)N2CCCCC2c2cc(C(=O)Nc3cccc4c3CCCC4)no2)cc1 (stereo not given) returned Cneo AK release 0.3, Env fusion inh 59.9*, PGC1a acetyl inh 6.7, UUG fidelity -5.6 and miR122 inh -7.9.
Screening Cc1nc(N2CCN(C)CC2)c2sc(=S)n(-c3ccccc3)c2n1 returned Cneo AK release -1.3, Env fusion inh 17.6, FN deposit inh 2.3 and UUG fidelity -8.5.
For S=c1sc2c(Cl)ncnc2n1-c1ccccc1 the results were Cneo AK release -1.3, Env fusion inh -58.1, FN deposit inh 11.6, PGC1a acetyl inh 64.0*, UUG fidelity -32.5 and miR122 inh 9.9.
Cc1nnc(SCC(=O)Nc2ccccc2NC(=O)CSc2nnc(C)s2)s1 was read as Cneo AK release 2.0, PGC1a acetyl inh 6.6, UUG fidelity -22.6 and miR122 inh -0.1.
`Cc1nnc(SCC(=O)Nc2sc3c(c2C(=O)c2ccccc2)CCCC3)s1` gave Cneo AK release 5.2, Env fusion inh 57.4*, FN deposit inh -5.0, PGC1a acetyl inh -0.8, UUG fidelity -0.7 and miR122 inh -3.2.
`CC(C)C(=O)Nc1cc(S(=O)(=O)Nc2ccc(Cl)cc2)ccc1Cl` gave Env fusion inh -29.3 and FN deposit inh 1.6.
For CC(C)(C)C(=O)Nc1cc(S(=O)(=O)Nc2ccc(Cl)cc2)ccc1O the results were Env fusion inh 6.2, FN deposit inh -1.5 and miR122 inh 166.5*.
Screening COC(=O)C1(C(=O)OC)C[C@H](c2ccc(OC)cc2)N(Cc2ccccc2OC)[C@@H]1c1cccs1 returned Env fusion inh 91.9* and FN deposit inh -6.9.
Screening CC(C)CN(C(=O)COC(=O)C12CC3CC(CC(C3)C1)C2)c1c(N)n(Cc2ccccc2)c(=O)[nH]c1=O returned Cneo AK release 0.4, Env fusion inh 69.6*, FN deposit inh 5.4 and UUG fidelity 16.3.
For CC(C)CN(C(=O)C(c1ccccc1)c1ccccc1)c1c(N)n(CC(C)C)c(=O)[nH]c1=O the results were Cneo AK release 1.4, Env fusion inh 79.3*, FN deposit inh -3.5, UUG fidelity -5.2 and miR122 inh -5.7.

A run of entries from the list above:
`O=C1c2ccccc2NC(c2ccncc2)N1c1ccccn1` (stereo not given) gave Cneo AK release 0.6, PGC1a acetyl inh -1.3, UUG fidelity -10.4 and miR122 inh -2.4.
Screening N#Cc1ccc(S(=O)(=O)N2CCCCC2c2cc(C(=O)Nc3cccc4c3CCCC4)no2)cc1 (stereo not given) returned Cneo AK release 0.3, Env fusion inh 59.9*, PGC1a acetyl inh 6.7, UUG fidelity -5.6 and miR122 inh -7.9.
Screening Cc1nc(N2CCN(C)CC2)c2sc(=S)n(-c3ccccc3)c2n1 returned Cneo AK release -1.3, Env fusion inh 17.6, FN deposit inh 2.3 and UUG fidelity -8.5.
